Test results taken from patent publication EP0728012B1, “NOVEL GnRH ANALOGUES WITH ANTITUMOUR EFFECTS AND PHARMACEUTICAL COMPOSITIONS THEREOF” (Lovas, Sandor, priority 1994, dated 1996).

Conditions: in vivo; once s.c. or i.p. 10-fold of the effective dose (400 µg/animal active substance)

Row | Substance | toxicity
1 | Ac-D-Trp^1,3,D-Cpa^2, {Lys[n-poly(N-vinyl pyrrolidone-co-maleic acid)-Gly-Phe-Leu-Gly-]}^5, [a-Asp(DEA)]^6, D-Ala^10-GnRH [P-GFLG-1892] | non-toxic
2 | Ac-D-Trp^1,3,D-Cpa^2,{Lys(n-poly-(N-vinylpyrrolidone-co-maleic acid)-Gly-Phe-Leu-Gly]}^6,D-Ala^10-GnRH [P-GFLG-1544] | non-toxic
